## Ab-14 heavy chain CDR variants: yeast mating affinities

Data: MIT Lincoln Laboratory AlphaSeq set, Engelhart et al. 2022, doi:10.1038/s41597-022-01779-4, as distributed in FLAb.

All variants were tested on one target, the spike HR2 peptide PDVDLGDISGINAS (SARS-CoV-2).

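The starting antibody came from a phage panning campaign against this peptide. In library AAYL49, one, two or three CDR residues were substituted; doubles and triples were drawn at random. In AlphaSeq, yeast of one mating type display the scFv and yeast of the other type display the target. After mating in shaken culture at 30 °C for 16 h, diploids were selected and their barcode pairs sequenced. Scores were corrected for input abundance and mapped to Kd with protein pairs of known affinity run in the same pool. Mating was done three times.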

Ab-14 is the parent antibody, in scFv form: VH, then a 15-residue (Gly4Ser)3 linker, then VL. The light chain is unchanged in all variants.
VH: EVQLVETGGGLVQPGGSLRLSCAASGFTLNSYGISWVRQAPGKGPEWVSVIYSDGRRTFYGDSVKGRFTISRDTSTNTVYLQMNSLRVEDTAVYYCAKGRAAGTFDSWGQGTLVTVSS
VL: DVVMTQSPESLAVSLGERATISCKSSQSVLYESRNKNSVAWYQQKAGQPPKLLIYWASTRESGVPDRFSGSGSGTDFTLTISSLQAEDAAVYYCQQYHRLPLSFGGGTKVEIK

Substitutions are numbered in sequence along the VH above, starting at 1 (not Kabat). The read-out is the apparent dissociation constant on a log10 scale (nM): the lower, the stronger. "ND" means that the variant was in the library but no mating with the target was seen in that replicate; the authors take this as a sign of poor binding, and no number exists.

| # | changes | replicates, log10 nM | empty controls |
|---|---|---|---|
| 1 | G99E+R100G+F105H | 5.66 / 3.58 / ND | 2/9 (4.31) |
| 2 | R56D+Y60K+R100P | ND / ND / ND | 0/9 |
| 3 | S31M+I34T | ND / ND / ND | 0/9 |
| 4 | S63P+S107R | 2.32 / 2.24 / 2.39 | 2/9 (3.93) |
| 5 | S53D+R56I+G61E | ND / ND / ND | 0/9 |
| 6 | R57Y+A102Q+S107Y | ND / ND / ND | 1/9 (4.50) |
| 7 | R56S+R100Q+G103S | ND / ND / ND | 0/9 |
| 8 | F27R+G33V+T58A | ND / ND / ND | 0/9 |
| 9 | G33V+I34Q+D62S | ND / 3.07 / 4.27 | 2/9 (3.50) |
| 10 | F27T+T104E | ND / ND / ND | 7/9 (4.90) |
| 11 | S31I | 2.49 / 2.35 / 2.80 | 4/9 (4.95) |
| 12 | S31T+G33Y+T104A | ND / ND / ND | 0/9 |
| 13 | S35F+G61Y+R100T | ND / ND / ND | 0/9 |
| 14 | N30L+I34P+K65A | ND / ND / ND | 0/9 |
| 15 | Y32H+T58F+Y60T | 4.05 / 4.96 / ND | 3/9 (4.37) |
| 16 | R56L+G99R+R100M | ND / ND / ND | 0/9 |
| 17 | F27N+G99E+F105N | 3.15 / 2.49 / 5.06 | 2/9 (4.42) |
| 18 | T28H+I34H+S35Q | ND / ND / ND | 0/9 |
| 19 | I34Q+Y52V+D106G | ND / ND / ND | 0/9 |
| 20 | G26A+T28Y+S63R | ND / 2.59 / ND | 0/9 |
| 21 | L29S+S53W+T104A | ND / 4.94 / 5.23 | 2/9 (3.88) |
| 22 | K65L+T104K+S107V | 1.66 / 1.44 / 2.31 | 0/9 |
| 23 | T28Y+G103W+S107T | 1.88 / 1.88 / 1.76 | 1/9 (4.23) |
| 24 | G26N+I51N+A102C | ND / ND / ND | 1/9 (5.02) |
| 25 | T28P+G55Y+V64R | 5.03 / ND / 4.26 | 2/9 (4.54) |
| 26 | F59N+A101H+F105D | ND / 5.65 / 3.77 | 3/9 (4.15) |
| 27 | Y32W+T58K+R100H | ND / ND / ND | 0/9 |
| 28 | F59W+Y60Q+G61W | ND / 3.11 / ND | 0/9 |
| 29 | I34W+I51G+A101V | ND / ND / ND | 0/9 |
| 30 | V50A+Y60V+G99Y | 2.39 / ND / 3.71 | 1/9 (3.49) |
| 31 | F27V+F105C | 2.50 / 2.33 / 2.65 | 7/9 (4.74) |
| 32 | F27S+F59E+S107V | 2.71 / 2.54 / 2.78 | 4/9 (4.51) |
| 33 | V50P+S53W+F105D | ND / ND / ND | 2/9 (4.20) |
| 34 | F59A+G61H+T104G | 3.44 / 3.24 / ND | 1/9 (3.11) |
| 35 | R57T+F105W | ND / 4.88 / ND | 1/9 (3.70) |
| 36 | I34N+S63R+T104K | ND / ND / ND | 6/9 (4.24) |
| 37 | V50T+S53W+T104P | 4.58 / ND / ND | 1/9 (4.03) |
| 38 | S31Q+K65P | 5.05 / ND / ND | 0/9 |

The opening 5 entries, copied out:

{"changes": "G99E+R100G+F105H", "replicates, log10 nM": "5.66 / 3.58 / ND", "empty controls": "2/9 (4.31)"}
{"changes": "R56D+Y60K+R100P", "replicates, log10 nM": "ND / ND / ND", "empty controls": "0/9"}
{"changes": "S31M+I34T", "replicates, log10 nM": "ND / ND / ND", "empty controls": "0/9"}
{"changes": "S63P+S107R", "replicates, log10 nM": "2.32 / 2.24 / 2.39", "empty controls": "2/9 (3.93)"}
{"changes": "S53D+R56I+G61E", "replicates, log10 nM": "ND / ND / ND", "empty controls": "0/9"}

As a blank, each scFv also met three strains without target: over library AAYL49, 15% of these pairings were detected, typically at 4.06 and seldom below 2.83. Also given: how often the same scFv was detected with the empty control strains, with their mean in brackets. In this assay the parent's reference entry averaged 0.65; its copy inside this library read 4.11 (one replicate of three).